Results reported in publication PMC4764975, “Probing the enzyme kinetics, allosteric modulation and activation of α1- and α2-subunit-containing AMP-activated protein kinase (AMPK) heterotrimeric complexes by pharmacological and physiological activators” (Biochemical Journal, 2016).

Protein sequences, listed by entry. Tags and fused reporters are not part of them.
UniProt Q13131, whole entry, chain 1 of 3: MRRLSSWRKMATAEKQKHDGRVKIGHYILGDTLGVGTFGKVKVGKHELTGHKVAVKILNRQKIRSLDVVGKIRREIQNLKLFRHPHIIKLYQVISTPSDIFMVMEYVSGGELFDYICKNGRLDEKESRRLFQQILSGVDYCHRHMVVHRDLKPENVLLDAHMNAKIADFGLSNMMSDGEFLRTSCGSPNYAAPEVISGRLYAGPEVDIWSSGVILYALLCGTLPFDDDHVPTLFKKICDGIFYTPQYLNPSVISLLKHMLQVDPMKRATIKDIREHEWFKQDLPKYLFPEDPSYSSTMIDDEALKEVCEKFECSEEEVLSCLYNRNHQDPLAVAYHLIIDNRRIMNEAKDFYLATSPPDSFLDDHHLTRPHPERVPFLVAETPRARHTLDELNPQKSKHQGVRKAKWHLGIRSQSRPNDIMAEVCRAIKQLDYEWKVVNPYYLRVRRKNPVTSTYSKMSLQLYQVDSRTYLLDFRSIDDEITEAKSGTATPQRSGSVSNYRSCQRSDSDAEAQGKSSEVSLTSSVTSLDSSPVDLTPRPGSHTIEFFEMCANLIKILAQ
UniProt P54646, whole entry, chain 1 of 3: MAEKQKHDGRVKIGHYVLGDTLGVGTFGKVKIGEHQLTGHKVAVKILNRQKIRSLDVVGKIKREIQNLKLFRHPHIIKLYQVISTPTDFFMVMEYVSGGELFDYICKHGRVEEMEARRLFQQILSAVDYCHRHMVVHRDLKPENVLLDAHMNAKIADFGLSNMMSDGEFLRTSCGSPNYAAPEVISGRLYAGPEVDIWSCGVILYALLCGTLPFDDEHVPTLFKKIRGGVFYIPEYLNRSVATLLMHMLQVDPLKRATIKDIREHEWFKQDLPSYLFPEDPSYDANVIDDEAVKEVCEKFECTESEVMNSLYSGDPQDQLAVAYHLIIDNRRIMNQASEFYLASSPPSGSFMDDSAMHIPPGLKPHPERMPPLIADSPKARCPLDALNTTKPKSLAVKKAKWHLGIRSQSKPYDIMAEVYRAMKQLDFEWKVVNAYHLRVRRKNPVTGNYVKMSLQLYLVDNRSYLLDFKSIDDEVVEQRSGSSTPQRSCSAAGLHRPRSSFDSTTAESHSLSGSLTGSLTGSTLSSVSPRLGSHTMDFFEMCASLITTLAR

Key:
[1] = target: AMPK heterotrimeric complex α1β1γ1 (UniProt Q13131)
[2] = target: AMPK heterotrimeric complex α2β2γ3 (UniProt P54646)
[3] = target: AMPK heterotrimeric complex α1β2γ3 (UniProt Q13131)

Km for SAMS peptide (radiometric kinase assay, fixed ATP, no AMP) [1]: 26.7 µM | Km for SAMS peptide (radiometric kinase assay, fixed ATP, no AMP) [2]: 80 µM | Km for SAMS peptide (radiometric kinase assay, fixed ATP, no AMP) [3]: 37.3 µM
Substance: SAMS peptide
